# Columns and labels:
# Chains of the proteins cited; added tags and fusions are not shown. Residues count along the entry.
# UniProt P35968, 20-1356: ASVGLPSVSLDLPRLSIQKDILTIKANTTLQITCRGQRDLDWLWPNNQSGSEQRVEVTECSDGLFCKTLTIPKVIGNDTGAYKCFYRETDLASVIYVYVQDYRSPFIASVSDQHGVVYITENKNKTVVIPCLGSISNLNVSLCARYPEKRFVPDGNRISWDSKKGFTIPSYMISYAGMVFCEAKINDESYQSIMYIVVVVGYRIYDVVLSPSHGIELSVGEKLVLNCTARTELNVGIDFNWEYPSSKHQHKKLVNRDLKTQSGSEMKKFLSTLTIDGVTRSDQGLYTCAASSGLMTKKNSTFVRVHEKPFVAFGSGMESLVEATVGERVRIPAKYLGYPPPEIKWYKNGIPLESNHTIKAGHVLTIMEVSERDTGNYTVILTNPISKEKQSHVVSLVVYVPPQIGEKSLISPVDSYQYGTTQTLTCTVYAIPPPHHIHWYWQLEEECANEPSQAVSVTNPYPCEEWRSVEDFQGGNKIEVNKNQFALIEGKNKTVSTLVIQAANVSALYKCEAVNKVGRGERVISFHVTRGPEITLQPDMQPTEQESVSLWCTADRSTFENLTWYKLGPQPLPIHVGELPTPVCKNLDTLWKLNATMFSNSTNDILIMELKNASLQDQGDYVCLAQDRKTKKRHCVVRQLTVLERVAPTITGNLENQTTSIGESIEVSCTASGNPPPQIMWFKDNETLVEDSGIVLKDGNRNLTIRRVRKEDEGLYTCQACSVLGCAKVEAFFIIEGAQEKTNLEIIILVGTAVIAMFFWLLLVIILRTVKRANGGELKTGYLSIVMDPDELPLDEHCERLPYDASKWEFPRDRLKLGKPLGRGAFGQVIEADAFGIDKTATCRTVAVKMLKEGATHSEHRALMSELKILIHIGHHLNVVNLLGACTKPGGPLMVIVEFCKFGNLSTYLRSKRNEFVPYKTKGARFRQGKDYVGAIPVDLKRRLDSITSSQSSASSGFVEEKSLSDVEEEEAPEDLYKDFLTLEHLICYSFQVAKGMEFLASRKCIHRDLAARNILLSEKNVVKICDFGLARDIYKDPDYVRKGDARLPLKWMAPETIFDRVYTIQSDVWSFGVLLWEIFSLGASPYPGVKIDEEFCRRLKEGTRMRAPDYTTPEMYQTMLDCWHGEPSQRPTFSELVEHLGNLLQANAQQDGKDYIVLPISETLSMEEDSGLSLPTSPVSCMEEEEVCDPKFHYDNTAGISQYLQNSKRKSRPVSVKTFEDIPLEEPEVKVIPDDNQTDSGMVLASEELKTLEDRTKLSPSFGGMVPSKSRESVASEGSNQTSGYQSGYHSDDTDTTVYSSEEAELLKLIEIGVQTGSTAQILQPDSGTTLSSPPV
# KDR/Flk1 = KDR/Flk1 (Homo sapiens, UniProt P35968); conditions: cited from earlier work
# PI3-kinase = PI3-kinase activity assay in BRPC; conditions: 25 ng/ml
substance,measurement,setting,value
VEGF,Kd,KDR/Flk1,0.01 to 0.1 nM
same,PI3-kinase activity increase,PI3-kinase; after 5 min,2.1±0.27 fold
same,PI3-kinase activity increase,PI3-kinase; after 10 min,1.6±0.17 fold

# Source: patent US7175844B2, “Methods of modulating fibrosis” (Joslin Diabetes Center, Inc., priority 2000, dated 2007)
